How the values were obtained:
[1] = test system: patients with iron deficiency anemia or renal anemia; assay: Safety assessments in patients with iron deficiency anemia and renal anemia; assay type: in vivo, human; conditions: iron doses 100 to 1000 mg
Procedure: Safety assessments were made in 73 patients with iron deficiency anemia (27 single-dose, 46 repeated-dose), and 166 patients with renal anemia (3 single-dose, 163 repeated-dose) who received VIT-45 at individual iron doses of 100 mg up to 1000 mg (cumulative doses of 100 to 2200 mg).

[2] = Single dose toxicity (LD50, acute toxicity)

polynuclear iron (III)-hydroxide 4(R)-(poly-(1→4)-O-α-D-glucopyranosyl)-oxy-2(R),3(R),5(R),6-tetrahydroxy-hexanoate [VIT-45]
safety profile versus currently available parenteral iron formulations [1]: equal to, or exceeding
safety factor relative to human dose (15 mg iron/kg b.w.) [2]: about 70 fold

— patent publication US11364260B2, “Methods and compositions for administration of iron” (American Regent, Inc., priority 2006, dated 2022)
